Source: PubChem BioAssay (NCATS)
This is a selection; strong and weak results do not stand in their true shares. Inconclusive results are not listed. Activity calls are given as the source filed them. Unless noted, the call rests on the fitted dose curve; in most records, active means well fitted curve in the direction sought with a large enough effect; inconclusive means small, poorly fitted or top-dose-only effect, or another doubt; inactive means no such curve, though single readings can be large; an effect the other way counts as inactive or inconclusive.

The chains behind the UniProt entries cited, without tags or fusion partners. Where a name states a change or a piece, a line headed by the entry shows the natural chain unless it says otherwise.
UniProt O15297: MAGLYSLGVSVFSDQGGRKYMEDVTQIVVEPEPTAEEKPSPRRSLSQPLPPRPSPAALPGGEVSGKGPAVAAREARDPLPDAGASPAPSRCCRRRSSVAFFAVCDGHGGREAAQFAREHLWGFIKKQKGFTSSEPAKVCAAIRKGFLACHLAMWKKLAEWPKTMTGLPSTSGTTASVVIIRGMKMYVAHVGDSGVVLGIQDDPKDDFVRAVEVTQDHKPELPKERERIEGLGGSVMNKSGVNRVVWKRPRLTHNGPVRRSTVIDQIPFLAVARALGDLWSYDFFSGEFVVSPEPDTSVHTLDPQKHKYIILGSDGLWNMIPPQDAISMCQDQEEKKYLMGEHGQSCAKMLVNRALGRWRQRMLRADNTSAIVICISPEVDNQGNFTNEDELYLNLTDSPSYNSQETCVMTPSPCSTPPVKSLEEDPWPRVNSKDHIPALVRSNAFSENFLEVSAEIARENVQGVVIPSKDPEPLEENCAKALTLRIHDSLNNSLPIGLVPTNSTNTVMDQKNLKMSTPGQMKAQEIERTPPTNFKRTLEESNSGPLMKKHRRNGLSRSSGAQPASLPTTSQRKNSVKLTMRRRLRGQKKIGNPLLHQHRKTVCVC
UniProt Q99828: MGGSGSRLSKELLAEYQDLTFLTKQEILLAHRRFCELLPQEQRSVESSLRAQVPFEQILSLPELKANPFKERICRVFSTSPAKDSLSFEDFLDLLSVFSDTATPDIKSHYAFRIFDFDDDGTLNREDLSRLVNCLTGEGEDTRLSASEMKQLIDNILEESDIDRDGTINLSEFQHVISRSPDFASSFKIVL
UniProt P07203, whole entry, looked up: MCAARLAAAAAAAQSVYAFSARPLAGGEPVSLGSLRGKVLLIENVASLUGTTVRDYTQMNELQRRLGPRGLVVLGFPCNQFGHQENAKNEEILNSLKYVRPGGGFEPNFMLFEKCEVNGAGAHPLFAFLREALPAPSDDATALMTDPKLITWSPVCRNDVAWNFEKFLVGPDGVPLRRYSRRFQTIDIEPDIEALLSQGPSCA
UniProt P36969, whole entry, looked up: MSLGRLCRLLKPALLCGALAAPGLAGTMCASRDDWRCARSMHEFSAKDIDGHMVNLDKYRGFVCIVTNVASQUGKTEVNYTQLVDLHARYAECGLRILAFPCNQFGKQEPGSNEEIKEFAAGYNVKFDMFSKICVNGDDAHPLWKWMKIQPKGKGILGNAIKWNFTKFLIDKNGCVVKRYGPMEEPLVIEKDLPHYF
UniProt Q9R1A7: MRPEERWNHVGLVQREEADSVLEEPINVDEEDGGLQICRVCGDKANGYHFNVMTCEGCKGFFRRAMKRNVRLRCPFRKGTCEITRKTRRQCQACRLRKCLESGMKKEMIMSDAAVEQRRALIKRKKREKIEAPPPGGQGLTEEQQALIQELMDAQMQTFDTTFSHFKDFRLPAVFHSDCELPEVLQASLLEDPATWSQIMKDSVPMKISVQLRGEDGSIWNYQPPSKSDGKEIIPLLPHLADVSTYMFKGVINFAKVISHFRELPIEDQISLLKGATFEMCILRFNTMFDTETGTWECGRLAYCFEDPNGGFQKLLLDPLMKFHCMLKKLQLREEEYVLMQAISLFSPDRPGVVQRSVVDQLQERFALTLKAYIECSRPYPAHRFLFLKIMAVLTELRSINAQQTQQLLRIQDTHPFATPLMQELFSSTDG

Assays:
[1] = qHTS of pediatric cancer cell lines to identify multiple opportunities for drug repurposing: Primary screen for NB1643 cells (AID 1347099); conditions: NB1643 neuroblastoma viability, CellTiter-Glo luminescence, 48 h; at 46 µM (top of the series) unless noted;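 further: plate controls were DMSO neutral control for no effect and bortezomib positive control for full effect; nearly all actives have a fitted effect of over 50% in size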
[2] = qHTS of pediatric cancer cell lines to identify multiple opportunities for drug repurposing: Primary screen for LAN-5 cells (AID 1347100); conditions: LAN-5 neuroblastoma viability, CellTiter-Glo luminescence, 48 h; at 46 µM (top of the series) unless noted;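 further: plate controls were DMSO neutral control for no effect and bortezomib positive control for full effect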
[3] = qHTS of pediatric cancer cell lines to identify multiple opportunities for drug repurposing: Primary screen for BT-12 cells (AID 1347101);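 further: plate controls were DMSO for no effect and bortezomib positive control for full effect; nearly all actives have a fitted effect of over 25% in size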
[4] = qHTS of pediatric cancer cell lines to identify multiple opportunities for drug repurposing: Primary screen for Rh18 cells (AID 1347102); conditions: Rh18 rhabdomyosarcoma viability, CellTiter-Glo luminescence, 48 h; at 46 µM (top of the series) unless noted; further: on the % scale 0 is the no-effect control and ±100 the full control effect; nearly all actives have a fitted effect of over 65% in size
[5] = qHTS of pediatric cancer cell lines to identify multiple opportunities for drug repurposing: Primary screen for OHS-50 cells (AID 1347103);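 further: plate controls were DMSO neutral control for no effect and bortezomib positive control for full effect; nearly all actives have a fitted effect of over 40% in size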
[6] = qHTS of pediatric cancer cell lines to identify multiple opportunities for drug repurposing: Primary screen for RD cells (AID 1347104); conditions: RD rhabdomyosarcoma viability, CellTiter-Glo luminescence, 48 h; at 46 µM (top of the series) unless noted;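 further: plate controls were DMSO for no effect and bortezomib for full effect; nearly all actives have a fitted effect of over 55% in size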
[7] = qHTS of pediatric cancer cell lines to identify multiple opportunities for drug repurposing: Primary screen for MG 63 (6-TG R) cells (AID 1347105); conditions: MG 63 (6-TG R) viability, CellTiter-Glo, 48 h; at 46 µM (top of the series) unless noted; further: on the % scale 0 is the no-effect control and ±100 the full control effect; nearly all actives have a fitted effect of over 50% in size
[8] = qHTS of pediatric cancer cell lines to identify multiple opportunities for drug repurposing: Primary screen for control Hh wild type fibroblast cells (AID 1347106); conditions: Hh wild-type fibroblast viability, CellTiter-Glo luminescence, 48 h; at 46 µM (top of the series) unless noted;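 further: on the % scale 0 is the no-effect control and ±100 the full control effect; a drop in luminescence marks cytotoxicity and a rise apparent proliferation; nearly all actives have a fitted effect of over 55% in size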
[9] = qHTS of pediatric cancer cell lines to identify multiple opportunities for drug repurposing: Primary screen for Rh30 cells (AID 1347107); conditions: Rh30 rhabdomyosarcoma viability, CellTiter-Glo luminescence, 48 h; at 46 µM (top of the series) unless noted; further: on the % scale 0 is the no-effect control and ±100 the full control effect; nearly all actives have a fitted effect of over 75% in size
[10] = qHTS of pediatric cancer cell lines to identify multiple opportunities for drug repurposing: Primary screen for Rh41 cells (AID 1347108); conditions: Rh41 rhabdomyosarcoma viability, CellTiter-Glo luminescence, 48 h; at 46 µM (top of the series) unless noted;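 further: luminescence drop marks cytotoxic hits; nearly all actives have a fitted effect of over 70% in size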
[11] = qHTS to identify inhibitors of the type 1 interferon - major histocompatibility complex class I in skeletal muscle: primary screen against the NCATS Pharmaceutical Collection (AID 1347407); conditions: human skeletal muscle cells, IFN-b-induced MHC-I HiBiT luminescence, 24 h; at 45.9 µM (top of the series) unless noted;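 further: luminescence of HiBiT knocked into endogenous HLA-B as interferon-induced MHC class I level; on the % scale 0 is the no-effect control and ±100 the full control effect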
Outline: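 HLA-B HiBiT myoblasts, dexamethasone-free growth medium + 4 ng/ml IFN-b; compounds pinned 1 h after seeding, […] from 46 uM; 24 h, 37 C, 5% CO2; lytic HiBiT detection, 10 min RT, luminescence.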

[12] = target: Protein phosphatase 1D (Homo sapiens) (UniProt O15297); experiment: RapidFire Mass Spectrometry qHTS Assay for Modulators of WT P53-Induced Phosphatase 1 (WIP1) (AID 1347424); conditions: WIP1 dephosphorylation of phosphopeptide, RapidFire MS; at 63 µM (top of the series) unless noted;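 further: amount of dephosphorylated VEPPL-S-QETFS peptide product formed by WIP1; plate controls were DMSO wells for no effect and GSK830371 inhibitor control at 10 µM for full effect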
Outline: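 10 nM WIP1 preincubated with compounds 1 hr at room temperature in pH 7.5 Tris buffer with 30 mM MgCl2, 1 mM TCEP; 2 uM VEPPL-pS-QETFS phosphopeptide for 5 min, formic acid quench; dephosphorylated product quantified by RapidFire MS against labelled standard.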

[13] = target: Protein phosphatase 1D (Homo sapiens) (UniProt O15297); experiment: Rhodamine-PBP qHTS Assay for Modulators of WT P53-Induced Phosphatase 1 (WIP1) (AID 1347425); conditions: recombinant WIP1, Rhodamine-PBP phosphate fluorescence, real-time; at 57.5 µM (top of the series) unless noted; further: % of control where 0% means no effect
Outline: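 WIP1 (5 nM final) was preincubated with compound for 1 hour at room temperature. It then dephosphorylated 10 uM VEPPL-pS-QETFS peptide in Tris-HCl pH 7.5 with 30 mM MgCl2. Released Pi was detected by 10 uM Rh-PBP fluorescence (ex 525/em 598 nm) read at 1-min intervals for 11 min, as delta f1 - f0.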

[14] = Primary qHTS for Huh7 cytotoxicity: counterscreen for inhibitors of MERS-S pseudotyped particle cell entry (AID 1479147; calls by dose curve); conditions: cell viability read-out; at 57.1 µM (top of the series)
[15] = target: Calcium and integrin-binding protein 1 (Homo sapiens) (UniProt Q99828); experiment: Primary qHTS for Identification of Calcium Integrin Binding Protein 1 (CIB1) Competitor (AID 1508620); conditions: CIB1-GST / FITC-alphaIIb peptide fluorescence polarization; at 114 µM (top of the series) unless noted;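 further: GST tagged CIB1 binding a fluorescein labelled alphaIIb integrin peptide tracer; top concentration of the series differs between compounds; on the % scale 0 is the no-effect control and ±100 the full control effect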
[16] = A High-Content qHTS Against Drug Library for the Identification of Small Molecules that Inhibit DYT1 Early Onset Primary Dystonia-Associated Cell Pathology (AID 1645839; calls by dose curve)
Outline: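 Flp-In T-REx 293 cells with tetracycline-inducible EGFP-delE hTOR1A (WT EGFP-hTOR1A as reference), 800 cells/well; compound added with tetracycline, 48 h at 37 C. Fixed, permeabilized cells imaged; %pathology (punctate TorsinA) primary, cell count counterscreen.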

[17] = target: Glutathione peroxidase 1 (Homo sapiens) (UniProt P07203); experiment: Primary qHTS Assay for Inhibitors of Recombinant Selenoprotein Glutathione Peroxidase 1 (GPX1) (AID 1845191); conditions: recombinant GPX1, GR-coupled NADPH fluorescence, 15 min; activity, negative = inhibition: at 48.8 µM (top of the series); further: on the % scale 0 is the no-effect control and ±100 the full control effect; nearly all actives have a fitted effect of over 65% in size
Outline: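 GR-coupled assay: compounds preincubated 30 min at room temperature with GPX1, then reaction started with CHP; final 10 nM GPX1, 1 mM GSH, 0.5 mM CHP, 0.5 mM NADPH, 100 nM GR, 0.01% BSA, pH 7.5 Tris buffer. NADPH fluorescence (340/450 nm) read at 0 and 15 min.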

[18] = target: Phospholipid hydroperoxide glutathione peroxidase GPX4 (Homo sapiens) (UniProt P36969); experiment: Primary qHTS Assay for Inhibitors of Recombinant Selenoprotein Glutathione Peroxidase 4 (GPX4) (AID 1845192); conditions: recombinant GPX4, GR-coupled NADPH fluorescence, 15 min; activity change, negative = inhibition: at 50 µM (top of the series); further: on the % scale 0 is the no-effect control and ±100 the full control effect; nearly all actives have a fitted effect of over 65% in size
Outline: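 GR-coupled assay: recombinant GPX4 preincubated 30 min with compound at room temperature; final 200 nM GPX4, 1 mM GSH, 0.5 mM cumene hydroperoxide, 0.5 mM NADPH, 100 nM GR, 0.01% BSA, pH 7.5 Tris. NADPH fluorescence (340/450 nm) read at 0 and 15 min.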

CRL-7250 [19] = experiment: Cytotoxic Profiling of Annotated Libraries Using Quantitative High-Throughput Screening (AID 1296008); conditions: Five cell lines viability, CellTiter-Glo ATP luminescence, 48-72 h; active compounds read low; further: nearly all actives have a fitted effect of over 60% in size; on max response: on the % scale 0 is the no-effect control and ±100 the full control effect
HaCat = experiment: as above; conditions: Five cell lines viability, CellTiter-Glo ATP luminescence, 48-72 h; active compounds read low
KB-3-1 = experiment: as above; conditions: Five cell lines viability, CellTiter-Glo ATP luminescence, 48-72 h, active compounds read low
NIH3T3 = experiment: as above; conditions: Five cell lines viability, CellTiter-Glo ATP luminescence, 48-72 h; active compounds read low
CRL-7250 [20] = experiment: qHTS assay to identify novel small-molecules to repurpose for Merkel cell carcinoma treatment (AID 1296009); conditions: MCC and control cell lines, CellTiter-Glo viability, 72 h; at 44.8 µM (top of the series) unless noted; further: nearly all actives have a fitted effect of over 60% in size; on activity change, negative = cytotoxicity: on the % scale 0 is the no-effect control and ±100 the full control effect
MCC-13 = experiment: as above; conditions: MCC and control cell lines, CellTiter-Glo viability, 72 h; at 46 µM (top of the series) unless noted
MCC-26 = experiment: as above; conditions: MCC and control cell lines, CellTiter-Glo viability, 72 h; at 46 µM (top of the series) unless noted
MKL-1 = experiment: as above; conditions: MCC and control cell lines, CellTiter-Glo viability, 72 h; at 46 µM (top of the series) unless noted
MKL-2 = experiment: as above; conditions: MCC and control cell lines, CellTiter-Glo viability, 72 h; at 46 µM (top of the series) unless noted
UISO = experiment: as above; conditions: MCC and control cell lines, CellTiter-Glo viability, 72 h; at 46 µM (top of the series)
WaGa = experiment: as above; conditions: MCC and control cell lines, CellTiter-Glo viability, 72 h; at 46 µM (top of the series) unless noted
[21] = Drug repurposing screens with cells derived from glioblastoma tumor samples (AID 1345199); conditions: GBM patient neurospheres viability, ATP luminescence, 48 h; Potency: tumour line A; series mostly up to 46.1 µM; further: on the % scale 0 is the no-effect control and ±100 the full control effect; nearly all actives have a fitted effect of over 40% in size
Outline: (§1)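 Four patient lines of CD133+ GBM neurospheres were screened at several concentrations; hits were retested in those lines plus three slower-growing GBM lines, using 48-hour treatment and ATP-based viability.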

astro = experiment: as above; conditions: viability, ATP luminescence, 48 h; at 45.9 µM (top of the series) unless noted
Outline: as §1

[22] = target: Nuclear receptor subfamily 1 group I member 2 (Rattus norvegicus) (UniProt Q9R1A7); experiment: qHTS assay for small molecule activators of the rat pregnane X receptor (rPXR) signaling pathway (AID 651751; call rule not given here; further: 0% is about no effect); conditions: rPXR reporter cells, luciferase (One-Glo), 24 h
[23] = qHTS assay for small molecule activators of the human pregnane X receptor (PXR) signaling pathway (AID 720659; call rule not given here; further: 0% is about no effect); conditions: DPX-2 HepG2 CYP3A4-luciferase, 24 h; at 92.3 µM (top of the series)

NC(=O)Nc1ccc([As](=O)(O)O)cc1
inactive: activity change, negative = cytotoxic [1] 16.9% | activity change, negative = cytotoxic [2] -0.423% | Potency [3] | activity change, negative = cytotoxic [4] -4.25% | Potency [5] | activity change, negative = cytotoxic [6] 19.9% | activity change, negative = cytotoxic [7] -8.83% | activity change, negative = cytotoxic [8] -6.15% | activity change, negative = cytotoxic [9] 20.1% | activity change, negative = cytotoxic [10] 20.6% | activity change, negative = inhibition [11] -0.273% | activity change, negative = inhibition [12] -2.8% | activity change, negative = inhibition [13] 3.79% | outcome [14] | activity change, negative = inhibition [15] -12.6% | Potency [16] | activity, negative = inhibition [17] -5.29% | activity change, negative = inhibition [18] 3.06% | outcome (CRL-7250 [19]) | max response (HaCat) -17.8% | max response (KB-3-1) -1.83% | max response (NIH3T3) -15.5% | outcome (CRL-7250 [20]) | activity change, negative = cytotoxicity (MCC-13) 14.2% | activity change, negative = cytotoxicity (MCC-26) 2.06% | activity change, negative = cytotoxicity (MKL-1) 20.2% | activity change, negative = cytotoxicity (MKL-2) 7.86% | activity change, negative = cytotoxicity (UISO) 13.3% | activity change, negative = cytotoxicity (WaGa) 4.95% | Potency [21] | activity, negative = cell killing (astro) -4.79% | max response [22] 13.3% | activation [23] -7.31%
